Reference: patent US20180250404A1, “HIGH-Z NANOPARTICLES AND THE USE THEREOF IN RADIATION THERAPY” (Board of Regents, The University of Texas System, priority 2015, published 2018)

Tested on: HCT116 xenografts
Assay: Tumor regrowth delay of HCT116 xenografts with radiation
Assay type: in vivo, nu/nu mice
Conditions: 10 Gy, 250 kVp
Description: FIGS. 2A-2B: cGNR enhances biological effectiveness of radiation in vivo. (A) Biodistribution of pGNR and cGNR, represented as % injected dose (ID), in different organs of mice, at 24 hr post-injection time (i.v, 1 mg/kg). […] The data points represent the mean±SE of four different experiments. […] Each data point represents the mean±SE of five animals.
FIG. 9: Tumor regrowth delay of HCT116 xenografts treated with radiation (10 Gy, 6 MV, 1.5 cm bolus over tumors) 24 hrs following intravenous administration of cGNRs; pGNRs; non-specific antibody conjugated GNRs (iGNRs); or pGNRs and an equivalent concentration of cetuximab (C225).
The therapeutic efficacy of cGNR radiosensitization was assessed by tumor doubling time and animal survival.

For “Cetuximab: monoclonal antibody targeting the epidermal growth factor receptor (EGFR)”, the “tumor volume doubling time / tumor growth delay” value was “did not prolong the tumor growth delay”.
